Where a name gives a salt, the structure may show the parent alone.
What was measured:
[1] = test system: CHCl3-adrenalin-model arrhythmia; type: in vivo, dog; settings: vs propafenone
Protocol: The antiarrhythmic effect of the compound of formula I was tested in dogs according to the method of Hapke and Prigge, Arzneim.-Forsch. (Drug Res.), loc. cit. A model arrhythmia which was essentially characterized by ventricular extrasystoles at absolute arrhythmia was produced by infusion of chloroform and adrenalin (epinephrine). At the onset of these rhythm disorders the inventive compound was injected intravenously as aqueous solution of the hydrochloride.
. […] (Drug Res.), loc. cit.

in vivo = settings: rat
circulation parameters = assay: Circulation parameters in dogs (method of Hapke and Prigge); settings: vs propafenone

SMILES: CCC(C)(C)NCC(O)COc1ccccc1C(=O)CCc1ccccc1 (stereo not drawn) [diprafenone-HCl, 2-[2'-hydroxy-3'-(1,1-dimethylpropylamino)-propoxy]-β-phenylpropiophenone-hydrochloride]
- effect in heart rhythm disorders relative to propafenone [1]: approximately 20 times
- LD50 (in vivo; iv): 16.9 mg/kg
- LD50 (in vivo; po): 1080 mg/kg
- hemodynamic activity relative to propafenone (circulation parameters): approximately the same hemodynamic activity

SMILES: CCC(C)(C)NCC(O)COc1ccccc1C(=O)CCc1ccccc1 (stereo not drawn) [diprafenone, 2-[2'-hydroxy-3'-(1,1-dimethylpropylamino)-propoxy]-β-phenylpropiophenone]
- antiarrhythmic dose relative to necessary dose of propafenone ([1]; intravenous): twentieth part

Source: patent US4460605A, “2-[2'-Hydroxy-3'-(1,1-dimethylpropylamino)-propoxy ]-β-phenylpropiophenone, its physiologically acceptable acid addition salts, and pharmaceutical compositions” (Helopharm W. Petrik & Co., priority 1981, dated 1984)
